Experimental data as given in patent US7223533B2, “Cell surface proteins and use thereof as indicators of activation of cellular signal transduction pathways” (priority 1999, dated 2007).

By UniProt entry, the sequences of proteins in these tests, tags left out.
UniProt P25929, whole entry: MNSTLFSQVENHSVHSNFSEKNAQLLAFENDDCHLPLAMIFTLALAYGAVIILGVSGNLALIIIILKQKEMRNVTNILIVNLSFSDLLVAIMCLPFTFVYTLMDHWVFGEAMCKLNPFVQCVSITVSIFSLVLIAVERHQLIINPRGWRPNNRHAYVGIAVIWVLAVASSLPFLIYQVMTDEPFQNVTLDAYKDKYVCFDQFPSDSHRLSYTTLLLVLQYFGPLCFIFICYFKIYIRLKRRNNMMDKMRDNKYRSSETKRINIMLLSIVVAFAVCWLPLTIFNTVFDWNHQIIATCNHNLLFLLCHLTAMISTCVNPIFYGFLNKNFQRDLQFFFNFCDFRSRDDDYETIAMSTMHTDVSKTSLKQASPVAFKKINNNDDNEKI

Molecular target: T1, neuropeptide Y receptor (Homo sapiens, UniProt P25929)
T1 construct: MFα1(1–89) prepro-α-factor leader (N); expressed in transfected cells; host or cells: S. cerevisiae MATa cells
Test: Western blot of DTT-extracted Aga2-HA
Format: cell-based
Settings: increasing concentrations of ligand vs absence
Description: The cells (TOD600=1.5) were pelleted, washed with ice-cold 0.15 M sodium chloride, resuspended in 50 microliters of 25 mM Tris-HCl, pH 8.5, supplemented with 10 mM dithiothreitol (DTI) and incubated for1 hour at 4° C. This DTT incubation step reduced the disulfide bonds between the Aga1 and Aga2 proteins, thereby releasing Aga2 into the extracellular medium. After centrifugation, 50 microliter aliquots of the supernatants were subjected to Western blot analysis. Immunoreactive bands corresponding to Aga2-HA were visualized using HA.11 antibodies (BAbCo) as primary antibodies, sheep anti-mouse IgG conjugated with horseradish peroxidase (Amarsham Pharmacia Biotech) as secondary antibodies, and peroxidase substrate (e.g., tetramethyl benzidine (Pierce)) for a visual readout.

expression level of the Aga2 protein: substantial increase
Substance: neuropeptide Y
